From US9242969B2, “Biaryl amide compounds as kinase inhibitors” (Novartis AG, priority 2013, dated 2016) come the findings set out here.

Sequences of proteins named here, by UniProt entry; tags and fusion partners are left off.
UniProt P04049, whole entry Y340E/Y341E: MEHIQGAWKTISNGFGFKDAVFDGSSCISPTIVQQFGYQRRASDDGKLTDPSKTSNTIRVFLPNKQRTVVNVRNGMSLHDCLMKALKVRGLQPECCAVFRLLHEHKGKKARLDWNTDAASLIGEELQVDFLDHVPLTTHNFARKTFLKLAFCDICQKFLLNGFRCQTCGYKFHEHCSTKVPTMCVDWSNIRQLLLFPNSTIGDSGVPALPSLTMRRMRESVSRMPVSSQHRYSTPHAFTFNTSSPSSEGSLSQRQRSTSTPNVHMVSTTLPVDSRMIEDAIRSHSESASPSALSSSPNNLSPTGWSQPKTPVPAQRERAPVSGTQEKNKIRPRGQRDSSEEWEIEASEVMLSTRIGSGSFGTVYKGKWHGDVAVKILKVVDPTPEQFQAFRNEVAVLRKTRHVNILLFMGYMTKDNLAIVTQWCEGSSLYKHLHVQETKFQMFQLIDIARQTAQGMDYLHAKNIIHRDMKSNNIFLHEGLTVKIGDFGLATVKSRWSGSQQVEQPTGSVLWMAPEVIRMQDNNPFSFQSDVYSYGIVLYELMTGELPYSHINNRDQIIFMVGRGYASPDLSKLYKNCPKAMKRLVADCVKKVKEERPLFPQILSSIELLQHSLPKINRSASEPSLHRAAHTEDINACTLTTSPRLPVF

The assay concerns the target C-Raf FL (full-length C-Raf with Y340E and Y341E activating mutations) (Homo sapiens (Human), UniProt P04049, Y340E/Y341E). The assay is classed as biochemical. The settings on record: full-length c-Raf 4 pM, ATP 3 uM, 10 nM biotinylated MEK1 kinase dead.
The compound `Cc1ncc(NC(=O)c2cccc(C(F)(F)F)c2)cc1-c1c[nH]c(=O)c(N2CCOCC2)n1` [Example 121, N-(6-methyl-5-(6-morpholino-5-oxo-4,5-dihydropyrazin-2-yl)pyridin-3-yl)-3-(trifluoromethyl)benzamide] came in with an IC50 of 0.599 nM.
As for `COc1ncc(N2CCOCC2)cc1-c1cc(NC(=O)c2cccc(C(F)(F)F)c2)ccc1C` [Example 122, N-(3-(2-methoxy-5-morpholinopyridin-3-yl)-4-methylphenyl)-3-(trifluoromethyl)benzamide], the midpoint of inhibition, the IC50, lay at 0.606 nM.
`Cc1ccc(NC(=O)c2cccc(C(F)(F)F)c2)cc1-c1cc(N2CCOCC2)cn(C)c1=O` [Example 123, N-(4-methyl-3-(1-methyl-5-morpholino-2-oxo-1,2-dihydropyridin-3-yl)phenyl)-3-(trifluoromethyl)benzamide] had an IC50 of 4.81 nM.
`Cc1ncc(NC(=O)c2cccc(C(F)(F)F)c2)cc1-c1cc(N2CCOCC2)cn(C)c1=O` [Example 124, N-(1′,2-dimethyl-5′-morpholino-2′-oxo-1′,2′-dihydro-[3,3′-bipyridin]-5-yl)-3-(trifluoromethyl)benzamide] showed an IC50 of 18 nM.
As for `Cc1ccc(NC(=O)c2cccc(C(F)(F)F)c2)cc1-c1cc(N2CCOCC2)c[nH]c1=O` [Example 125, N-(4-methyl-3-(5-morpholino-2-oxo-1,2-dihydropyridin-3-yl)phenyl)-3-(trifluoromethyl)benzamide], the IC50 amounted to 6.38 nM.
Compound `COc1ncc(-c2cc(NC(=O)c3cccc(C(F)(F)F)c3)ccc2C)cc1N1CCOCC1` [Example 126, N-(3-(6-methoxy-5-morpholinopyridin-3-yl)-4-methylphenyl)-3-(trifluoromethyl)benzamide] gave an IC50 of 0.299 nM.
The figure for `COc1ncc(-c2cc(NC(=O)c3ccnc(C(C)(C)C#N)c3)ccc2C)cc1N1CCOCC1` [Example 128, 2-(2-cyanopropan-2-yl)-N-(3-(6-methoxy-5-morpholinopyridin-3-yl)-4-methylphenyl)isonicotinamide] is 0.873 nM.
Then `COc1ncc(-c2cc(NC(=O)c3ccnc(C(C)(C)C#N)c3)cnc2C)cc1N1CCOCC1` [Example 129, 2-(2-cyanopropan-2-yl)-N-(6′-methoxy-2-methyl-5′-morpholino-[3,3′-bipyridin]-5-yl)isonicotinamide], with 2.33 nM.
Turning to `Cc1ccc(NC(=O)c2cccc(C(F)(F)F)c2)cc1-c1cnc(OC2CCOCC2)c(N2CCOCC2)c1` [Example 132, N-(4-methyl-3-(5-morpholino-6-((tetrahydro-2H-pyran-4-yl)oxy)pyridin-3-yl)phenyl)-3-(trifluoromethyl)benzamide], 0.457 nM corresponded to half-maximal inhibition (IC50).
The figure for `Cc1ncc(NC(=O)c2cccc(C(F)(F)F)c2)cc1-c1cc(N2CCOCC2)c(=O)n(C(C)C)c1` [Example 133, N-(1′-isopropyl-2-methyl-5′-morpholino-6′-oxo-1′,6′-dihydro-[3,3′-bipyridin]-5-yl)-3-(trifluoromethyl)benzamide] is 1.94 nM.
Turning to `Cc1ccc(NC(=O)c2cccc(C(F)(F)F)c2)cc1-c1cc(N2CCOCC2)c(=O)n(C(C)C)c1` [Example 135, N-(3-(1-isopropyl-5-morpholino-6-oxo-1,6-dihydropyridin-3-yl)-4-methylphenyl)-3-(trifluoromethyl)benzamide], the IC50 stood at 0.322 nM.
Then `Cc1ccc(NC(=O)c2cccc(C(F)(F)F)c2)cc1-c1cnc(OC(C)C)c(N2CCOCC2)c1` [Example 136, N-(3-(6-isopropoxy-5-morpholinopyridin-3-yl)-4-methylphenyl)-3-(trifluoromethyl)benzamide], with 0.503 nM; and `Cc1ccc(C(=O)Nc2cccc(C(F)(F)F)c2)cc1-c1cc(N2CCOCC2)c(=O)n(C)c1` [Example 137, 4-methyl-3-(1-methyl-5-morpholino-6-oxo-1,6-dihydropyridin-3-yl)-N-(3-(trifluoromethyl)phenyl)benzamide], with 0.527 nM.
`Cc1ncc(NC(=O)c2cccc(C(F)(F)F)c2)cc1-c1cc(N2CCOCC2)c(=O)n(C)c1` [Example 138] returned an IC50 of 0.652 nM.

The term IC50 denotes the point on the concentration scale where inhibition reaches its midpoint. Low readings indicate inhibition by little substance, high ones a need for much substance.
